Source: ChEMBL document CHEMBL1137340, “Binding of 13-amidohuprines to acetylcholinesterase: exploring the ligand-induced conformational change of the gly117-gly118 peptide bond in the oxyanion hole” (J Med Chem, 2006)

Biological target: Acetylcholinesterase (Bos taurus, UniProt P23795)

CCC1=C[C@@H]2Cc3nc4cc(F)ccc4c(N)c3[C@H](C1)C2
pIC50: 8.17

pIC50: −log10 of the molar value.
